Reference: the supplement of paper PMC13380429

Key:
Settings in all cases: 72 h
Caco-2 [1] = experiment: cell viability relative to DMSO; higher = less toxic
Calu-3 [2] = experiment: as above
HepG2 [3] = experiment: as above
U2OS [4] = experiment: as above
Vero E6 [5] = experiment: as above
Caco-2 [6] = experiment: relative viability EC50 (midpoint between 100% and the lowest measured viability); higher = less toxic
Calu-3 [7] = experiment: as above
HepG2 [8] = experiment: as above
U2OS [9] = experiment: as above
Vero E6 [10] = experiment: as above
Caco-2 [11] = experiment: drug sensitivity score (DSS) for viability; higher = more toxic; extreme values may be limits of the assay
Calu-3 [12] = experiment: as above
HepG2 [13] = experiment: as above
U2OS [14] = experiment: as above
Vero E6 [15] = experiment: as above

CC[C@H](C)[C@H](NC(=O)[C@H](CCC(=O)O)NC(=O)[C@H](CCC(=O)O)NC(=O)[C@H](Cc1ccccc1)NC(=O)[C@H](CC(=O)O)NC(=O)CNC(=O)[C@H](CC(N)=O)NC(=O)CNC(=O)CNC(=O)CNC(=O)CNC(=O)[C@@H]1CCCN1C(=O)[C@H](CCCNC(=N)N)NC(=O)[C@@H]1CCCN1C(=O)[C@H](N)Cc1ccccc1)C(=O)N1CCC[C@H]1C(=O)N[C@@H](CCC(=O)O)C(=O)N[C@@H](CCC(=O)O)C(=O)N[C@@H](Cc1ccc(O)cc1)C(=O)N[C@@H](CC(C)C)C(=O)O [bivalirudin]
cell viability [%]
Settings | Caco-2 [1] | Calu-3 [2] | HepG2 [3] | U2OS [4] | Vero E6 [5]
1 nM | 93.9 | 98.9 | 104 | 97.7 | 97.9
10 nM | 108 | 92.2 | 95.2 | 103 | 93.6
100 nM | 106 | 103 | 97.5 | 96.4 | 100
1000 nM | 102 | 97.2 | 97.3 | 98.5 | 92.7
10000 nM | 97.6 | 97.3 | 92.2 | 93.2 | 101

Settings | drug sensitivity score | relative viability EC50 [µM]
Caco-2 [6] | – | > 10
Caco-2 [11] | 0 | –
Calu-3 [7] | – | > 10
Calu-3 [12] | 0 | –
HepG2 [8] | – | > 10
HepG2 [13] | 0 | –
U2OS [9] | – | > 10
U2OS [14] | 0 | –
Vero E6 [10] | – | > 10
Vero E6 [15] | 0 | –
